Experimental data: US9212214B2, “Methods of increasing the expression yield of vitamin K-dependent proteins” (CSL Limited, priority 2009, dated 2015)

Tested on: CHO cell line expressing recombinant Factor IX fusion protein with human albumin

With “Reduced Menadione Sodium Bisulphite [rMSB]” the “toxic effect on the cells, overall comparison” value (at the concentrations used) was “much less toxic effect on the cells than addition of MSB”, the “toxicity observed (cell growth)” value (nominal 2160 ug/10^6 cells/day, did not result in cell death) was “reduced cell growth” and the cell growth (nominal 240 and 720 ug/10^6 cells/day) was “comparable to the control”.
